# Earlier results, collected in article PMC9031317, “Development of Self-Administered Formulation to Improve the Bioavailability of Leuprorelin Acetate” (Pharmaceutics, 2022).
# Settings: Table 1 property; source not given
substance,measurement,value
Leuprolide acetate [Leuprolide acetate (LA)],PI,9.1
